# Patent US20160208018A1 (JUNO THERAPEUTICS, published 2016)
# Sequences of proteins named here, by UniProt entry; tags and fusion partners are left off. Residues count along the entry.
# UniProt Q01973, 30-937: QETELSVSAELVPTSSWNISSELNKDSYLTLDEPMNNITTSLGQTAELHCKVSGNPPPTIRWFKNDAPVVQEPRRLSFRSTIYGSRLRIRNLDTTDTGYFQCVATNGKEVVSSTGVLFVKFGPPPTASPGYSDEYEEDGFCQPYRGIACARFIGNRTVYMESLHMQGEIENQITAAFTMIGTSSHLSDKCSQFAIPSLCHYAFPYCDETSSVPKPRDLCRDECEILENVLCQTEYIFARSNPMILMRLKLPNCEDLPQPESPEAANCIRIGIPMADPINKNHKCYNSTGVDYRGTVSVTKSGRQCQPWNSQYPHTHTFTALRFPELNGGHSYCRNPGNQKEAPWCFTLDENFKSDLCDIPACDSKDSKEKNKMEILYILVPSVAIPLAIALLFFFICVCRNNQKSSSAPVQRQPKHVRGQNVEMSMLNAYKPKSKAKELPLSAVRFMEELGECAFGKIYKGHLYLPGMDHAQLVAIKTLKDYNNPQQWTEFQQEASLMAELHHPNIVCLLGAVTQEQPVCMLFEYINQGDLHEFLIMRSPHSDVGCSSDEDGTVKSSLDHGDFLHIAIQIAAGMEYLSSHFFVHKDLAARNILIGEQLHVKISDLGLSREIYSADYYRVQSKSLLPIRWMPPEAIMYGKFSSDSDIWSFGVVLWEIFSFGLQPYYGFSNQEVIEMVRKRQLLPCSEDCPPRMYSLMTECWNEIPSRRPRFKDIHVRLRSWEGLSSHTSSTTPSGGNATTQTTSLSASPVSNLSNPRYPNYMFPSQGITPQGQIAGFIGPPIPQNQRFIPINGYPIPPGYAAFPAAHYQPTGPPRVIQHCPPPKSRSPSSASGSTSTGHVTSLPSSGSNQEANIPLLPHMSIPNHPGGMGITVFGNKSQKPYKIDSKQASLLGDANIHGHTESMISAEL
# Key:
# [1] = biological target: T1, Human ROR1 (receptor tyrosine kinase-like orphan receptor 1) (human, UniProt Q01973); assay: flow cytometry on ROR1-expressing K562 and CHOK1 cells (n = 1)
# T1 construct: also called hROR1; K562/ROR1
# [2] = biological target: T1, Human ROR1 (receptor tyrosine …); assay: flow cytometry competition, competitor 2 nM Myc-R12 scFv on ROR1/K562 cells (n = 1)
# Description: (§1) Assays also were performed to assess competition of the clones with the reference antibody (R12 scFv), for binding to ROR1-expressing cells. VH clones were titrated against 2 nM Myc-R12 on ROR1/K562 cells and competition assessed with an anti-Myc-Alexa647 secondary antibody, and the half maximal inhibitory concentration (IC₅₀) determined for respective clones.
# [3] = biological target: T1, Human ROR1 (receptor tyrosine …); assay: flow cytometry on ROR1-expressing cells; predicted plateau relative to R12 scFv = 100%
# Description: (§2) Additionally, percent (%) maximum (max) binding to ROR1-expressing cells and % max competition with the reference antibody (R12 scFv) were calculated. Percent max binding and competition values were calculated based on predicted plateaus (measured by Prism® using four parameter non-linear regression), relative to values for R12 scFv binding and inhibition, respectively, assigned as 100% in each study.
# [4] = biological target: T1, Human ROR1 (receptor tyrosine …); assay: competition with Myc-R12 scFv on ROR1/K562 cells; predicted plateau relative to R12 scFv = 100%
# Description: as §1, §2
binder,measurement,setting,value
"Clone V357 (VHH, human VH-only single-domain antibody, no VL) VHH: EVQLVESGGGLVKPGGSLRLSCAASGFTFSNAWMSWVRQAPGKGLEWVGRIKSKTDGGTTDYAAPVKGRFTISRDDSKNTLYLQMNSLKTEDTAVYYCARDMVGAWLVLSYFDYWGQGTLVTVSS",EC50,[1],46 nM
same,IC50,[2],74 nM
same,% Max Binding,[3],22%
same,% Max Competition,[4],44%
